Measurements taken from ChEMBL document CHEMBL1212709, “Design of isoform-selective phospholipase D inhibitors that modulate cancer cell invasiveness” (Nat Chem Biol, 2009).

Amino acid sequences for entries named in this document (tags omitted). A change or cut given only in a name is not applied to a line headed by its entry.
UniProt O14939: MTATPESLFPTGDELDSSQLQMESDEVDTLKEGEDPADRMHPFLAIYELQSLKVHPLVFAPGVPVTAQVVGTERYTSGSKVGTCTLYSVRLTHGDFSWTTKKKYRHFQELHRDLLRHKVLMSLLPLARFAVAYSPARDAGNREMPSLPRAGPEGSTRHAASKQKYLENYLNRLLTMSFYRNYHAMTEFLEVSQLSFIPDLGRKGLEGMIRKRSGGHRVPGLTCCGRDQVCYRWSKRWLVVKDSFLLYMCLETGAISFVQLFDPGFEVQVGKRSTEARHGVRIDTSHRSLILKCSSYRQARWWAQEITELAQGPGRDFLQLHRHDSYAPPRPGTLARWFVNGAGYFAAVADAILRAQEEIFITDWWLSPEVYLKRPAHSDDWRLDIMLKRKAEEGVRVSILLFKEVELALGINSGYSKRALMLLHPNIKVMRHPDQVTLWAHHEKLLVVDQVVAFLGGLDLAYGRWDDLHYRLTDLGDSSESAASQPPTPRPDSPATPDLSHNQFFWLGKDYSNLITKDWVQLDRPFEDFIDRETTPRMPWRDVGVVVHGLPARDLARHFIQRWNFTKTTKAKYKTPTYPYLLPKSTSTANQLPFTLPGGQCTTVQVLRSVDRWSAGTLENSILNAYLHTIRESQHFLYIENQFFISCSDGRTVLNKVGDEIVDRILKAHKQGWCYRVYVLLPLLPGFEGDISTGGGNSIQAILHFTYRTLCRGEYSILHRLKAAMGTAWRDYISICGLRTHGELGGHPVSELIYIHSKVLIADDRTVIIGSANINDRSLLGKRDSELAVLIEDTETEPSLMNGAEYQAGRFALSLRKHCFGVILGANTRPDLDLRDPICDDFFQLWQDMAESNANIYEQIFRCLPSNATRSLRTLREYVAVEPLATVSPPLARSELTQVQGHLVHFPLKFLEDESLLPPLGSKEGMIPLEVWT

Assays:
[1] = biological target: T1, Phospholipase D1 (Rattus norvegicus, UniProt P70496); test: Inhibition of N-terminally truncated rat PLD1 assessed as release of methyl-[3H]choline from choline-methyl-[3H]dipalmitoylphosphatidylcholine after 30 mins by exogenous substrate assay
T1 sequence (P70496 whole entry): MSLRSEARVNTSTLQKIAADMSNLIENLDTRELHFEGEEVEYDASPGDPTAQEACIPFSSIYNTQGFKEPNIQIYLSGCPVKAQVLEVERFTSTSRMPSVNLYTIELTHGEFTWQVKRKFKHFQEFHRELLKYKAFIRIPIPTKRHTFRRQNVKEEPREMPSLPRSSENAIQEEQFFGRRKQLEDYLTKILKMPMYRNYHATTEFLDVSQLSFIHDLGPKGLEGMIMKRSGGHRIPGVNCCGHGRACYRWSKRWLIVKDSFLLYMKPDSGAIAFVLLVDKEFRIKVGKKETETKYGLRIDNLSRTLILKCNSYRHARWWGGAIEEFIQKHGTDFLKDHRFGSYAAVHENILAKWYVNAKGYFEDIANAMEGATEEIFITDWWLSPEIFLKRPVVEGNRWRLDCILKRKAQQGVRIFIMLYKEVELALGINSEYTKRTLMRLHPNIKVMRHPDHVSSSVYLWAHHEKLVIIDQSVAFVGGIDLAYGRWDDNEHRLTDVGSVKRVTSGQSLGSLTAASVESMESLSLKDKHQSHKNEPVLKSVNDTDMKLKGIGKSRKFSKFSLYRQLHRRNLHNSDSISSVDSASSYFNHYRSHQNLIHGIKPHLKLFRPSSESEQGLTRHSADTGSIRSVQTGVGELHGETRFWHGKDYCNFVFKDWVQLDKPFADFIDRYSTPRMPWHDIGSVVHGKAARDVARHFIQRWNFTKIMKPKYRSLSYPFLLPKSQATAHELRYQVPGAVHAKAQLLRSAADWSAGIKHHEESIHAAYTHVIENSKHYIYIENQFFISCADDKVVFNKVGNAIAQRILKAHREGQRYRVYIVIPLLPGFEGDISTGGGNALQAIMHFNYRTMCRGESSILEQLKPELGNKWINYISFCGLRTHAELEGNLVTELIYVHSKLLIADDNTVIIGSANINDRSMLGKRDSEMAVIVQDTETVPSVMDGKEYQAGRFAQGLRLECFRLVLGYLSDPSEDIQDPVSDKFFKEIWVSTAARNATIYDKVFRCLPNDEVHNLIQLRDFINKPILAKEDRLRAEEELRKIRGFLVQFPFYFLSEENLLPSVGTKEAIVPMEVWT

[2] = biological target: Phospholipase D2 (Homo sapiens, UniProt O14939); test: Inhibition of human PLD2 assessed as release of methyl-[3H]choline from choline-methyl-[3H]dipalmitoylphosphatidylcholine after 30 mins by exogenous substrate assay

Question: With `C=Cc1ccc(C(=O)NCCN2CCC(n3c(=O)[nH]c4ccccc43)CC2)cc1` as the compound, how does the IC50 [1] read?
Answer: The IC50 was 1900 nM.

Question: And the IC50 [2]?
Answer: Its IC50 is 1900 nM.
